{"source": "ChEMBL document CHEMBL1139742", "about": "“3-(Indol-2-yl)indazoles as Chek1 kinase inhibitors: Optimization of potency and selectivity via substitution at C6” (Bioorg Med Chem Lett, 2006)"}
{"organism": "Homo sapiens", "experiment": "Selectivity for Chek1 over Cdk7"}
{"compound": "CN(C)C(=O)c1ccc2c(-c3cc4cc(CN5CCOCC5)ccc4[nH]3)n[nH]c2c1", "Ratio IC50": "> 1200"}
{"compound": "CNC(=O)c1ccc2c(-c3cc4cc(CN5CCOCC5)ccc4[nH]3)n[nH]c2c1", "Ratio IC50": 380}
{"compound": "N#Cc1ccc2c(-c3cc4cc(CN5CCOCC5)ccc4[nH]3)n[nH]c2c1", "Ratio IC50": 0.37}
{"compound": "COC(=O)c1ccc2c(-c3cc4cc(CN5CCOCC5)ccc4[nH]3)n[nH]c2c1", "Ratio IC50": 100}
{"compound": "NC(=O)c1ccc2c(-c3cc4cc(CN5CCOCC5)ccc4[nH]3)n[nH]c2c1", "Ratio IC50": 110}
{"compound": "c1cc2[nH]c(-c3n[nH]c4cc(-c5cn[nH]c5)ccc34)cc2cc1CN1CCOCC1", "Ratio IC50": 2.5}
{"target": "T1, Serine/threonine-protein kinase Chk1 (Homo sapiens, UniProt O14757)", "T1 sequence (O14757 whole entry)": "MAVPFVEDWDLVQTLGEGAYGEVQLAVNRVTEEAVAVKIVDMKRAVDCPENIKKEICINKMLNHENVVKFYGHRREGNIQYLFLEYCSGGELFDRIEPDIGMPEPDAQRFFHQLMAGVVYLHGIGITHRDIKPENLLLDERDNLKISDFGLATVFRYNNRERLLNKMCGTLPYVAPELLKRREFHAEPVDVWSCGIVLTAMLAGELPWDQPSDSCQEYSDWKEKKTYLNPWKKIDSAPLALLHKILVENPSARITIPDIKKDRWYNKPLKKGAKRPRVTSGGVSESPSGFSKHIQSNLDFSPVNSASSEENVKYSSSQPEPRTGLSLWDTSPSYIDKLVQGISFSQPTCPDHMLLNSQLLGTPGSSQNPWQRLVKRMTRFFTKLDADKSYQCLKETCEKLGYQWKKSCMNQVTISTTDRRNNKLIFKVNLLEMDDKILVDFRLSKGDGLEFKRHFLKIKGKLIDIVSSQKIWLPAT", "experiment": "Inhibition of Chek1", "units": {"IC50": "pM"}}
{"compound": "OCc1n[nH]nc1-c1ccc2c(-c3cc4cc(CN5CCCCC5)ccc4[nH]3)n[nH]c2c1", "IC50": 300}
